# Apparent affinities of Ab-91 variants for a coronavirus HR2 peptide

Binding partner: SARS-CoV-2 spike HR2 peptide, sequence PDVDLGDISGINAS.

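Phage display of a naive human antibody library on the peptide gave the parent. Variants in AAYL51 differ from the parent at up to three CDR positions; double and triple changes were sampled at random. The scFvs were displayed on barcoded MATa yeast, the peptide on MATalpha yeast. Pairs that bind mate more often; barcode pairs of the diploids are counted by sequencing. The ratio of observed to expected reads was calibrated, replicate by replicate, on BCL2-family standards whose Kd was known from biolayer interferometry. There are three technical replicates.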

Parent: Ab-91, a human scFv built as VL, the linker GGGGSGGGGSGGGGS, VH. Only the CDRs of the heavy chain vary.
VL: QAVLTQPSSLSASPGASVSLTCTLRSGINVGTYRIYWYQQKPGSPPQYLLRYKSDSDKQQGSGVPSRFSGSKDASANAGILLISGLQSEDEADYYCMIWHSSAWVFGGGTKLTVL
VH: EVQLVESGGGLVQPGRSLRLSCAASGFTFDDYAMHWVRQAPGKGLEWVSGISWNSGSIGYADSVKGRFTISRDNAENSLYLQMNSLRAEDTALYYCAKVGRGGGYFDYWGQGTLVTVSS

Variants are written as CDR1, CDR2 and CDR3 of the heavy chain (limits as in the source). Parent: GFTFDDYAMH, GISWNSGSIGYADSVK, VGRGGGYFDY. All variants listed here change S52 of the VH, counted from its first residue. Scale: log10 of Kd in nM, estimated from mating counts; low values are strong binders. Averages over replicates are reported, and they cover detected replicates only. "nd" marks a missing value. The strain was present, yet no cells mated with the target were sequenced in any replicate, which points to weak or no binding.

With GFTFDDYAMH | GINWQSGSIRYADSVK | VGRGGGYFDY the result was 4.84 (3 of 3 replicates; controls 3 of 9).
With GFTFDDYAMH | GIVWNSHSIGYADAVK | VGRGGGYFDY the result was 4.81 (1 of 3 replicates; controls 2 of 9).
With GFTFDDYAMH | GIKWNSGSIGYATSYK | VGRGGGYFDY the result was nd (0 of 3 replicates; controls 0 of 9).
With GFTFDDYAMH | WIIWNSGSIGYTDSVK | VGRGGGYFDY the result was nd (0 of 3 replicates; controls 0 of 9).
With GFTFDDYASH | GSDWNSGSIGYADSVK | VGRGGGYFDY the result was 5.01 (1 of 3 replicates; controls 1 of 9).
With GCTFDDYAMH | GIGWNSGSIGYADSVK | VGRQGGYFDY the result was 5.36 (2 of 3 replicates; controls 1 of 9).
With EFTFDDYAKH | GIVWNSGSIGYADSVK | VGRGGGYFDY the result was nd (0 of 3 replicates; controls 1 of 9).
With GFTFDDMAMH | GIDWNSGSIGYAWSVK | VGRGGGYFDY the result was nd (0 of 3 replicates; controls 0 of 9).
With GFTFDDYAMH | GIAWNDGSIGYADSVK | VWRGGGYFDY the result was 2.93 (3 of 3 replicates; controls 3 of 9).
With GFTFDDYAMH | GIQWNSGSIGYADSVK | VGRRGKYFDY the result was nd (0 of 3 replicates; controls 2 of 9).
With GFTFDDYAMH | GIQWNSGSIGYADSVK | VGRGGGYFDY the result was 3.22 (1 of 3 replicates; controls 0 of 9).
With GFTFDDYAMH | GIMWNSGSIGYADSVK | VGRGGGVFDY the result was 5.69 (3 of 3 replicates; controls 8 of 9).
With GFTFDHYAMH | QIAWNSGSIGYADSVK | VGRGGGYFDY the result was 4.24 (1 of 3 replicates; controls 6 of 9).
With GFTFDDYAMI | GIIWNSGSIGYADSVK | VGRGGGYFDY the result was nd (0 of 3 replicates; controls 2 of 9).
With GFTFDDYAMH | GIYWRSGSIGYADSVK | VGRGGGLFDY the result was nd (0 of 3 replicates; controls 1 of 9).
With GFTFDDYAMH | GIAWNSGSIGYMDSVK | VGRGGVYFDY the result was nd (0 of 3 replicates; controls 0 of 9).
With GFTFDDYAMW | GIQWNSGSIGYSDSVK | VGRGGGYFDY the result was nd (0 of 3 replicates; controls 4 of 9).
With GFTFDDYAMH | GSYWNSGSIGYADSVK | VGRGGGEFDY the result was nd (0 of 3 replicates; controls 4 of 9).
With GFTFDDYAMK | GICWNSGSIGYADSVK | VGGGGGYFDY the result was nd (0 of 3 replicates; controls 1 of 9).
With GFTFDDYAMH | GIRWNSGSIGYADSVK | VGRGEGYFDH the result was 3.84 (1 of 3 replicates; controls 1 of 9).
With GFTFYDYAMA | GINWNSGSIGYADSVK | VGRGGGYFDY the result was nd (0 of 3 replicates; controls 0 of 9).
With GFTFDDYAMH | GIWWNSGSITYADSVK | VGRGGGYMDY the result was 4.17 (2 of 3 replicates; controls 1 of 9).
With GFTFDDYTMH | GIVWNSGSIGYADSVK | VGRTGGYFDY the result was 4.10 (2 of 3 replicates; controls 0 of 9).
With GQTFDDYAMH | GIAWNSGSIGYMDSVK | VGRGGGYFDY the result was 2.24 (3 of 3 replicates; controls 3 of 9).
With GFLFDDYAMH | GIHWNSGSIGYADSSK | VGRGGGYFDY the result was nd (0 of 3 replicates; controls 1 of 9).
With GFTFCDYAMH | GIEWNSGSIGYADSVK | VGRGGGYFCY the result was 5.32 (3 of 3 replicates; controls 5 of 9).
With GFTFDDYAMH | GIPWNSGQIGYADNVK | VGRGGGYFDY the result was nd (0 of 3 replicates; controls 0 of 9).
With GFTFDDYAMH | GITWNSGSIGYPDSVK | VGRGGVYFDY the result was 5.23 (1 of 3 replicates; controls 2 of 9).
With GFTFDDYAMH | GILWNSGSIGPADSRK | VGRGGGYFDY the result was nd (0 of 3 replicates; controls 1 of 9).
With GFTFDDYAMD | GIQWNSGSIGYLDSVK | VGRGGGYFDY the result was 5.04 (3 of 3 replicates; controls 6 of 9).
With GFTFDDYAGH | GILWNSGSIGYADSVK | VGRGGGYFDY the result was nd (0 of 3 replicates; controls 2 of 9).
With GETYDDYAMH | GIPWNSGSIGYADSVK | VGRGGGYFDY the result was 4.75 (3 of 3 replicates; controls 1 of 9).
With GFTFDDYAMH | GIDWNSGSIGYADSVK | RGRGGGYFDY the result was 5.52 (2 of 3 replicates; controls 4 of 9).
With GFTFDDYAMH | GIGWNSGSIGYANSVK | VGMGGGYFDY the result was 2.34 (3 of 3 replicates; controls 1 of 9).
With GTTFDDYAMH | GIPWNSGSIGYADSNK | VGRGGGYFDY the result was nd (0 of 3 replicates; controls 2 of 9).

Excerpt, the final 2 entries:

{"CDR-H1": "GFTFDDYAMH", "CDR-H2": "GIGWNSGSIGYANSVK", "CDR-H3": "VGMGGGYFDY", "mean log10 Kd (nM)": "2.34", "replicates with signal": "3/3", "signal with controls": "1/9"}
{"CDR-H1": "GTTFDDYAMH", "CDR-H2": "GIPWNSGSIGYADSNK", "CDR-H3": "VGRGGGYFDY", "mean log10 Kd (nM)": "nd", "replicates with signal": "0/3", "signal with controls": "2/9"}

Nonspecific signal, from three strains lacking the peptide, appeared in 21% of pairings of library AAYL51, centred on 4.54 (5% of these signals below 3.26); values are not corrected for it. For each scFv, signals with the empty controls are counted beside the result. For reference, the parent read 1.86 as the reference entry and 0.88 as a member of this library.

Reference: Engelhart et al. 2022, doi:10.1038/s41597-022-01779-4. File: FLAb, binding data.